Reference: paper PMC11679574 (2024)

Tests used:
Caco-2 [1] = details: cited from earlier work
Caco-2 [2] = details: cited from earlier work; remark: listed apart in the source

In the case of Dextran-FITC 4 kDa [FD4], the Papp (enteroid monolayers) is reported as < 1 ·10^−6 cm/s, the “Papp A to B, Flow” value (enteroid monolayers) is reported as 0 cm/s and the “Permeability difference translucent vs transparent membranes” value (enteroid monolayers) is reported as 2.3 fold. For the same substance, the Papp (Caco-2 monolayers) was < 1 ·10^−6 cm/s, the “Permeability difference translucent vs transparent membranes” value (Caco-2 monolayers) was 1.3 fold and the “Papp A to B, Flow” value (Caco-2 [1]) was 2.5e-07 cm/s. For the same substance, the “Papp A to B, Static” value (Caco-2 [2]) was <1e-07 cm/s.
